Experimental data published in ChEMBL document CHEMBL2203066 (J Med Chem, 2012).

What was measured:
in vivo = conditions: Sprague-Dawley, rat, po, 10 mg/kg
physchem = conditions: octanol/water, pH 7.4

Row | Structure (SMILES) | half-life (in vivo) | logD at 24 h (physchem)
1 | CCC(CC)O[C@@H]1C=C(C(=O)O)C[C@H](N)[C@H]1NC(C)=O [OSELTAMIVIR CARBOXYLATE] | 10.6 h | 
2 | CCOC(=O)C1=C[C@@H](OC(CC)CC)[C@H](NC(C)=O)[C@@H](N)C1 [OSELTAMIVIR] |  | 0.36
